The record followed here is ChEMBL document CHEMBL5154704 (Bioorg Med Chem, 2022).

Sequences of proteins named here, by UniProt entry; tags and fusion partners are left off. A change or cut given only in a name is not applied to a line headed by its entry.
UniProt P37231: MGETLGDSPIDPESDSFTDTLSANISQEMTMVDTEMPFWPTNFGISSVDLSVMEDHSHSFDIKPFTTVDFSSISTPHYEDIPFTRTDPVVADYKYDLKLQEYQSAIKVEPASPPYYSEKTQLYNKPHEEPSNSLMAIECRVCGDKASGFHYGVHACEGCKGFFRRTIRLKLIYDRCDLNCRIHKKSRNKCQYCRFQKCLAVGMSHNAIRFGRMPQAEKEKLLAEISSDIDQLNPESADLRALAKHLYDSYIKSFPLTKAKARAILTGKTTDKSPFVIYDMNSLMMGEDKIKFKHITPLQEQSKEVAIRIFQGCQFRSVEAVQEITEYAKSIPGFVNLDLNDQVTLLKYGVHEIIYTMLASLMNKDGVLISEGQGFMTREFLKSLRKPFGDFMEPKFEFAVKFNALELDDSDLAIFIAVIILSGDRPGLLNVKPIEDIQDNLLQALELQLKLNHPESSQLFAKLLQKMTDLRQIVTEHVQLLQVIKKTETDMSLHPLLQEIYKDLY

Molecules are shown by their SMILES.

Assay [1] deals with T1, Peroxisome proliferator-activated receptor alpha (Homo sapiens) (UniProt Q07869).
T1 sequence (whole entry): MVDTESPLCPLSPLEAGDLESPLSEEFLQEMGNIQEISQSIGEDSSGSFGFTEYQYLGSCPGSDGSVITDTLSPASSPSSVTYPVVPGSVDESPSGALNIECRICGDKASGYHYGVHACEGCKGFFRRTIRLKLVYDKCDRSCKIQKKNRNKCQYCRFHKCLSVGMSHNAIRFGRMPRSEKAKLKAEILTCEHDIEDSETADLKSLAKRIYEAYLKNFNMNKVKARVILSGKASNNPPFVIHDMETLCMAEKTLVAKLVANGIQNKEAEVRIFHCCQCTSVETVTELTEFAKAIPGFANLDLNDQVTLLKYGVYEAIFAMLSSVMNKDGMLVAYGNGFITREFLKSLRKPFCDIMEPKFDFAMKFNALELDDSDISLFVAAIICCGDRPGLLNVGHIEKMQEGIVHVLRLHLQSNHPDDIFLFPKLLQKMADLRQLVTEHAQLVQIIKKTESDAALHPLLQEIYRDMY
Briefly: Agonist activity at pBIND tagged human PPARalpha expressed in human HepG2 cells at 10 uM incubated for 18 hrs by dual luciferase reporter assay relative to control. Type of assay: cell-based.

The target of assay [2] is Peroxisome proliferator-activated receptor gamma (Homo sapiens) (UniProt P37231). In words: Agonist activity at pBIND tagged human PPARgamma expressed in human HEK293 cells at 10 uM incubated for 18 hrs by dual luciferase reporter assay relative to control. Type of assay: cell-based. (A reporter such as luciferase makes a cellular process visible.)

For `COc1ccc(-c2cccc(COc3ccc(OCC(=O)O)c(F)c3)c2)cc1`, the results for the Activity in assay [1] and in assay [2] were 12% and 9%, respectively.

On to `Cc1ccc(OCC2CCC2)cc1-c1cccc(COc2ccc(OCC(=O)O)c(F)c2)c1`, for which the Activity in assay [1] was 2%; in assay [2], 5%.

For `COc1ccc2cc(-c3cccc(COc4ccc(OCC(=O)O)c(F)c4)c3)ccc2c1`, the results for the Activity in assay [1] and in assay [2] were 20% and 15%, respectively.

For the compound `CCOc1ccc(-c2cccc(COc3ccc(OCC(=O)O)c(F)c3)c2)cc1`, the Activity came out at 7% in assay [1] and 17% in assay [2].

For the compound `CCCOc1ccc(C)c(-c2cccc(COc3ccc(OCC(=O)O)c(F)c3)c2)c1`, the Activity in assay [1] was found to be 5%; in assay [2], 7%.

With `Cc1ccc(OCC(C)C)cc1-c1cccc(COc2ccc(OCC(=O)O)c(F)c2)c1`, the Activity in assay [1] turned out to be 3%; in assay [2], 6%.

Turning to `CCOc1cccc(-c2cccc(COc3ccc(OCC(=O)O)c(F)c3)c2)c1`, the Activity in assay [1] was 15%; in assay [2] it was 13%.

Regarding `CCOc1ccc(C)c(-c2cccc(COc3ccc(OCC(=O)O)c(F)c3)c2)c1`, the Activity in assay [1] was found to be 13%; in assay [2], 8%.

In the case of `COc1ccc(C)c(-c2cccc(COc3ccc(OCC(=O)O)c(F)c3)c2)c1`, the Activity turned out to be 17% in assay [1] and 12% in assay [2].

For `Cc1ccc(OCC2CC2)cc1-c1cccc(COc2ccc(OCC(=O)O)c(F)c2)c1`, the figures for the Activity in assay [1] and in assay [2] were 15% and 8%, respectively.

With `O=C(O)COc1ccc(OCc2cccc(-c3ccc4cc(OCC5CC5)ccc4c3)c2)cc1F`, the Activity was 15% in assay [1] and 13% in assay [2].

`COc1cccc(-c2cccc(COc3ccc(OCC(=O)O)c(F)c3)c2)c1`: the Activity in assay [1] worked out at 20%; in assay [2], 18%.

As for `O=C(O)COc1ccc(OCc2cccc(-c3cccc(OCC4CC4)c3)c2)cc1F`, the values for the Activity in assay [1] and in assay [2] were 16% and 10%, respectively.

`CCOc1ccc2cc(-c3cccc(COc4ccc(OCC(=O)O)c(F)c4)c3)ccc2c1`: the Activity in assay [1] was 17%; in assay [2], 14%.

With `O=C(O)COc1ccc(OCc2cccc(-c3ccc(OCC4CC4)cc3)c2)cc1F`, the Activity in assay [1] worked out at 15%; in assay [2], 18%.
